Source: PMC4686660, “MLLT1 YEATS domain mutations in clinically distinctive Favourable Histology Wilms tumours” (Nature Communications, 2015)

Target: T1, MLLT1 YEATS domain polypeptide p.111_113NPP>K (human, UniProt Q03111 1-138, p.111_113NPP>K)
T1 construct: MLLT1 (ENL), human, YEATS domain, residues 1-138 of the wild type, with the somatic Wilms tumour mutation c.333_339 (NPP 111-113 replaced by K); Somatic mutation found in tumours; source: E. coli BL21(pLysS), purified (Ni-NTA sepharose, size exclusion chromatography)
T1 sequence (looked up): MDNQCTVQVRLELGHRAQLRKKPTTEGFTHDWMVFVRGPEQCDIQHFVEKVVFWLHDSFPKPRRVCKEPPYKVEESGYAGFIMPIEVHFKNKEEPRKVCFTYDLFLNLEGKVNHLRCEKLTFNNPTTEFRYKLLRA
Assay: ITC; YEATS domain in the measurement cell (90-130 uM), histone peptides in the injection syringe (1.2 mM); 50 mM Hepes pH 7.4, 300 mM NaCl, 5 mM beta-mercaptoethanol, 25 °C; MicroCal ITC200 and TA Nano microcalorimeters; triplicate
Settings: both partners purified

B1: H3K9ac histone H3 tail peptide (peptide)
chain: ARTKQTARKST
modifications: acetyl-lysine at K9
Work on B1 yielded a Kd of 57 µM.
